Laboratory results taken from patent US6423716B1, “Nitrogenous heterocyclic compounds” (Kyowa Hakko Kogyo Co., Ltd., priority 1998, dated 2002).

Chains of the proteins cited; added tags and fusions are not shown. Residues count along the entry.
UniProt P09619, 33-1106: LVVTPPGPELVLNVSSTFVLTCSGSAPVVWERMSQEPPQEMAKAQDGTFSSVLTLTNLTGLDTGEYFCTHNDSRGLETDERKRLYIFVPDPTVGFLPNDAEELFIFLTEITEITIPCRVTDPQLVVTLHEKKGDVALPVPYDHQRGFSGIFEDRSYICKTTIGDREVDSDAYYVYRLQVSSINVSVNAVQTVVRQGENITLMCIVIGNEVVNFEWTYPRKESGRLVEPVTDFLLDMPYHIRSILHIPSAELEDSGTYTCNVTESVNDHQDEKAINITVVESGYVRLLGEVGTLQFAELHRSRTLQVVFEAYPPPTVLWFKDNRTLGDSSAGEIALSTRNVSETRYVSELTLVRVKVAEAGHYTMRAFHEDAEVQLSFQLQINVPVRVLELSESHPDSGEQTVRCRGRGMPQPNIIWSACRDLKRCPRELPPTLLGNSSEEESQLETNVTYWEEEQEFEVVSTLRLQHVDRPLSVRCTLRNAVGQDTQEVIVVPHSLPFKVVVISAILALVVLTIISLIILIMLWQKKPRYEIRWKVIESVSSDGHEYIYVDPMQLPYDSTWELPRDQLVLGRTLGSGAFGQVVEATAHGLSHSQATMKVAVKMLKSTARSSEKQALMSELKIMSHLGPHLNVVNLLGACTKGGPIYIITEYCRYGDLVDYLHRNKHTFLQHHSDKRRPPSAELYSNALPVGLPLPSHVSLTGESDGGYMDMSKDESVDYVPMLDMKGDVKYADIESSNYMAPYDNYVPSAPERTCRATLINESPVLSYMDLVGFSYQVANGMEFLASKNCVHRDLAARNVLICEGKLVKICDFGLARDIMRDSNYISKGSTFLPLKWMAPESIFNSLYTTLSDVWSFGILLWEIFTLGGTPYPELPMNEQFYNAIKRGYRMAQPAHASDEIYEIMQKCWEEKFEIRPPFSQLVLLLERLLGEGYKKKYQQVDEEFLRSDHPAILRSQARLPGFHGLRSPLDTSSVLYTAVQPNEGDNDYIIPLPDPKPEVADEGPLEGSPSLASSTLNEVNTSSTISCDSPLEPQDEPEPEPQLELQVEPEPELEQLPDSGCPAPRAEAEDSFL

These compounds were tested against T1, human β-PDGF receptor (Homo sapiens, UniProt P09619) (assay: PDGF receptor phosphorylation inhibition test). Conditions: CHO cells expressing human β-PDGF receptor cDNA; concentration inhibiting 50% of PDGF receptor phosphorylation.
T1 construct: expressed in transfected cells; host or cells: Chinese hamster ovary (CHO) cells
Assay type: cell-based
Protocol: PDGF Receptor Phosphorylation Inhibition Test
This test was carried out according to the process disclosed in a literature [J. Biol. Chem., 266: 413-418 (1991)]. In this case, Chinese hamster ovary (CHO) cells to which human β-PDGF receptor cDNA had been inserted and in which it had been expressed were used in the test.
Test results on Compounds 22, 50, 52, 63 and 66 were represented by a ratio (%) of inhibiting phosphorylation of the PDGF receptor at 10 μM, with the results shown in Table 3.

IC50	Structure (SMILES)
290 nM	O=C(Nc1ccc(Oc2ccccc2)cc1)N1CCN(c2ncnc3nc[nH]c23)CC1 [Compound 1, N-(4-Phenoxyphenyl)-4-(6-purinyl)-1-piperazinecarboxamide]
890 nM	S=C(NCc1ccccc1)N1CCN(c2ncnc3nc[nH]c23)CC1 [Compound 3, N-Benzyl-4-(6-purinyl)-1-piperazinethiocarboxamide]
200 nM	Nc1nc(N2CCN(C(=O)Nc3ccc(Oc4ccccc4)cc3)CC2)c2[nH]cnc2n1 [Compound 5, 4-(2-Amino-6-purinyl)-N-(4-phenoxyphenyl)-1-piperazinecarboxamide]
